Results as given in patent US9206167B2, “Piperazine-substituted benzothiophenes for treatment of mental disorders” (Otsuka Pharmaceutical Co., Ltd., priority 2005, dated 2015).
Where a name gives a salt, the structure may show the parent alone.

Chains of the proteins cited; added tags and fusions are not shown.
UniProt P14842, whole entry: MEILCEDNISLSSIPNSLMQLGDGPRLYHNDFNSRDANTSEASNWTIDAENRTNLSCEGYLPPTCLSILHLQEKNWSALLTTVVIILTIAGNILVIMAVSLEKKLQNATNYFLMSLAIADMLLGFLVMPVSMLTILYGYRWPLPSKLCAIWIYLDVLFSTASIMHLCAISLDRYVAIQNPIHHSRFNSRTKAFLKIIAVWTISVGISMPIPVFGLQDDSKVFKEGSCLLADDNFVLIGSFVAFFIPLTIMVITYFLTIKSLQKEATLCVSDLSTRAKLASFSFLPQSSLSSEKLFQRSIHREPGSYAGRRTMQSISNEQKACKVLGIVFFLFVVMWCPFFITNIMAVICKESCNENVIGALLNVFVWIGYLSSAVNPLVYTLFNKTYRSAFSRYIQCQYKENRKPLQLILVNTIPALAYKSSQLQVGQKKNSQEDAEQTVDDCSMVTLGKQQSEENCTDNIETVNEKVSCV

Target: Serotonin 5-HT2A receptor (Rattus norvegicus (Rat), UniProt P14842)
Assay: Serotonin 5-HT2A receptor binding assay ([3H]-Ketanserin, rat frontal cortex membrane)
Conditions: Ki from IC50 by Cheng-Prussoff formula
Description: 2) Serotonin 5-HT2A Receptor Binding Assay
The assay was performed according to the method by Leysen J E et al. (Leysen J E, Niemegeers C J E, Van Nueten J M and Laduron P M. [3H] Ketanserin (R 41 468), a selective 3H-ligand for serotonin 2 receptor binding sites. Mol. Pharmacol., 1982, 21: 301-314).
Wistar male rats were decapitated, the brain was retrieved immediately and frontal cortex was taken out. It was homogenized in 0.25 M sucrose of a volume 10 times of the weight of the tissue using a Teflon glass homogenizer, and centrifuged at 4° C., 1,000×g for 10 minutes. The obtained supernatant was transferred to another centrifuge tube and suspended in 0.25 M sucrose of a volume 5 times of the weight of the tissue and the precipitate was centrifuged in the above-described condition. […]
The filter plate made of glass fiber was washed with 50 mM Tris-hydrochloric acid buffer (pH 7.4), and after dried, a microplate liquid scintillation cocktail was added and the radioactivity was measured with a microplate scintillation counter. Radioactivity in the presence of 10 μM spiperone was assumed as nonspecific binding.
IC50 value was calculated from concentration-dependent reaction using a non-linear analysis program. Ki value was calculated from IC50 value using Cheng-Prussoff formula.

For O=c1c2cc(O)ccc2ccn1CCCCN1CCN(c2cccc3sccc23)CC1 [Example 39, 2-[4-(4-benzo[b]thiophen-4-yl-piperazin-1-yl)butyl]-7-hydroxy-2H-isoquinolin-1-one hydrobromide], the Ki was 2.1 nM.
